The text below walks through data of patent US20140171424A1, “HYPERTENSION AND HYPERURICEMIA” (ARDEA BIOSCIENCES, INC., priority 2011, published 2014).

pIC50: −log10 of the molar value.

In assay [1] the target is T1, OAT4 (Homo sapiens, UniProt Q9NSA0).
T1 sequence (Q9NSA0 1-550): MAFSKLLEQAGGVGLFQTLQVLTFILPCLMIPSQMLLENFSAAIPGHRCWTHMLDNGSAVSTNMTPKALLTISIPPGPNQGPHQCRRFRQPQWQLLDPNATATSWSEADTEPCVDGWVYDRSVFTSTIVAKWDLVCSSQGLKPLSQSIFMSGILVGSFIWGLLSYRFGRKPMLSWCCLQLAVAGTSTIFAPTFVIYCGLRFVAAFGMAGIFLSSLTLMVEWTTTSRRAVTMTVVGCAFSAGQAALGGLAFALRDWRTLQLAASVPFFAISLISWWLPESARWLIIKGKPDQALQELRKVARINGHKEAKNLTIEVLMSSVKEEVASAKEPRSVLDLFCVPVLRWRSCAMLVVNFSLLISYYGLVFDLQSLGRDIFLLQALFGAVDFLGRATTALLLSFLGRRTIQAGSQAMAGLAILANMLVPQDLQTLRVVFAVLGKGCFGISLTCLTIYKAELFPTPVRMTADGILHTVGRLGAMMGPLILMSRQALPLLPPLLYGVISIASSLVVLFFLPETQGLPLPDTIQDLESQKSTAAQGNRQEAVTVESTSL
Particulars: Lesinurad 25, 50, 100 μM outside; 22, 44, 444 μM inside oocytes.

For assay [2], the target named is T1, OAT4. In words: OAT4 urate (14C-uric acid) transport in transfected HEK293/293T cells. Also noted: expressed in transfected cells. It counts as cell-based. As to the method: For cultured cells, HEK293 cells stably expressing the transporters were produced through transfection of DNA constructs carrying the transporters, antibiotic selection, and clonal selection of clones with high transporter activity. Alternatively, cells transiently expressing the transporters were produced by reverse transfection of HEK293T cells. Transfectants were plated at high density onto poly-L-lysine coated multiwell plates and assayed 1-2 days later.

Turning to `O=C(O)CSc1nnc(Br)n1-c1ccc(C2CC2)c2ccccc12` [Lesinurad, 2-(5-bromo-4-(4-cyclopropylnaphthalen-l-yl)-4H-1,2,4-triazol-3-ylthio)acetic acid], at OAT4 [1], the “percent uptake of 3H-Estrone sulfate, side of inhibition” value is “inhibits OAT4 primarily from the extracellular (apical) side”. The pIC50 on OAT4 [2] was 5.30. Besides, the “percent inhibition of UA transport, OAT4” value at OAT4 [2] (293T cells expressing URAT1 and/or OAT4, varying concentrations) is “inhibits URAT1 and OAT4 with similar potency”.

One may read the pIC50 as the negative decadic logarithm of the IC50, by convention in mol/L. Read a low pIC50 as a large IC50.
